Data as given in BindingDB's records for doi:10.1021/jm9905054 (Eisai, 2000).

Assay: 50% inhibitory concentration against phosphodiesterase 5 (PDE5) from porcine platelets

With `O=C(O)C1CCN(c2nc(NCc3ccc4c(c3)OCO4)c3cc(Cl)ccc3n2)CC1` [Sodium; 1-{4-[(benzo[1,3]dioxol-5-ylmethyl)-amino]-6-chloro-quinazolin-2-yl}-piperidine-4-carboxylate] the IC50 was 3.7 nM.
